Test results from ChEMBL document CHEMBL4152205, “Therapeutic journery of nitrogen mustard as alkylating anticancer agents: Historic to future perspectives” (2018).

Columns and labels:
Hs 766 = assay: Cytotoxicity against human Hs766T cells assessed as reduction in cell viability after 48 by MTT assay
MIA PaCa-2 = assay: Cytotoxicity against human MIAPaCa2 cells assessed as reduction in cell viability after 48 by MTT assay
PANC-1 = assay: Cytotoxicity against human PANC1 cells assessed as reduction in cell viability after 48 by MTT assay
MDA-MB-231 = assay: Cytotoxicity against human MDA-MB-231 cells assessed as reduction in cell viability after 24 hrs by MTT assay

Row | SMILES | IC50 (Hs 766) | IC50 (MIA PaCa-2) | IC50 (PANC-1) | IC50 (MDA-MB-231)
1 | C[C@]12CC[C@H](OC(=O)Cc3ccc(N(CCCl)CCCl)cc3)C[C@@H]1CC[C@@H]1[C@@H]2CC[C@]2(C)NC(=O)CC[C@@H]12 | > 100 µM | > 100 µM | > 100 µM | 
2 | O=C(CCCc1ccc(C(CCCl)CCCl)cc1)NCCNC(=O)c1ccc(-c2ccc(C3=NCCCN3)cc2)o1 |  |  |  | 5 µM
